Publication PMC3401275 (International Journal of Pharmaceutics, 2012)

Tested on: Caco-2 cells
Assay: Cellular accumulation on Caco-2 cell monolayers
Conditions: 30 min incubation, Fig. 3

For “biotin-ricinoleicacid-acyclovir [B-R-ACV]”, the “increase in the uptake compared to ACV” value was 10 times.
